Data reported in US12507703B2, “Methods, devices and compositions for preserving human milk” (The Trustees of Princeton University, priority 2023, dated 2025).
Where a name gives a salt, the structure may show the parent alone.

System: lipase
Assay: Lipase/lipolysis assay (EnzChek Lipase Substrate, quenched BODIPY-fatty acid conjugate) on stored human milk; note: test concentration or dose not given here
Details: stored 1 week at −20° C.
[1] = Food Additive Library compound added to fresh human milk, thawed at room temperature, RFU of <400 considered a hit
[2] = compound added to fresh human milk, thawed at room temperature, RFU <400 considered a hit
[3] = Food-Sourced Compound Library compound added to fresh human milk, thawed at room temperature, RFU <400 considered a hit
[4] = Biolog PM2a compound added to fresh human milk, RFU <400 = hit
[5] = Biolog PM1 compound added to fresh human milk, RFU <400 = hit

Lipase (RFU) [1]	Lipase (RFU) [2]	Lipase (RFU) [3]	Structure (SMILES)	other results
655.8408 RFU	909.3841 RFU	–	CCC(=O)C(C)=O [2,3-Pentanedione]	–
–	–	849.3773 RFU	Cn1cnc2c(ncn2[C@@H]2O[C@H](CO)[C@@H](O)[C@H]2O)c1=N [Compound 1-Methyladenosine, 1-Methyladenosine]	–
1048.253 RFU	–	1056.535 RFU	C=CCCCCCCCCC(=O)O [10-Undecenoic acid]	–
–	–	1259.869 RFU	OC[C@H]1O[C@@H](Oc2ccc(O)cc2)[C@H](O)[C@@H](O)[C@@H]1O [Arbutin]	Lipase (RFU) [4]: 1141.749 RFU
–	645.9765 RFU	–	COc1ccc(C[C@H]2COC(=O)[C@@H]2Cc2ccc(O[C@@H]3O[C@H](CO)[C@@H](O)[C@H](O)[C@H]3O)c(OC)c2)cc1OC [Arctiin]	–
903.444 RFU	–	–	CC(=O)OC[C@H]1O[C@@](COC(C)=O)(O[C@H]2O[C@H](COC(C)=O)[C@@H](OC(C)=O)[C@H](OC(C)=O)[C@H]2OC(C)=O)[C@@H](OC(C)=O)[C@@H]1OC(C)=O [Sucrose octaacetate]	–
–	1233.156 RFU	–	NCCCC[C@H](NC1(CO)O[C@H](CO)[C@@H](O)[C@@H]1O)C(=O)O (stereo partly drawn) [Fructosyl-lysine]	–
1166.375 RFU	–	–	C=C[C@H]1C[N@@]2CC[C@H]1C[C@H]2[C@H](O)c1ccnc2ccc(OC)cc12 [Quinine]	–
–	–	1189.372 RFU	COc1c(-c2ccc(O)c(O)c2)oc2cc(O)cc(O)c2c1=O [3-O-Methylquercetin]	–
–	876.9959 RFU	–	COc1cc(O)c(CC=C(C)C)c2c1C(=O)C[C@@H](c1ccc(O)cc1)O2 [(2S)-Isoxanthohumol]	–
–	–	–	O=CC[C@H](O)[C@H](O)CO [2-Deoxy-D-Ribose]	Lipase (RFU) [4]: 844.3126 RFU
–	861.8531 RFU	–	O=C(O)c1cc(C(=O)O)c2c(n1)C(=O)C(=O)c1cc(C(=O)O)[nH]c1-2 [Pyrroloquinoline quinone (disodium salt)]	–
–	971.4582 RFU	–	COc1cc(-c2oc3cc(O)cc(O)c3c(=O)c2O[C@@H]2O[C@H](CO)[C@@H](O)[C@H](O)[C@H]2O[C@@H]2O[C@@H](C)[C@H](O)[C@@H](O)[C@H]2O)ccc1O [Isorhamnetin-3-O-neohespeidoside]	–
–	–	1308.016 RFU	O=C1C[C@@H](c2ccccc2)Oc2cc(O)cc(O)c21 [Pinocembrin]	–
–	–	703.1377 RFU	OC[C@H]1O[C@@H](OCCc2ccc(O)cc2)[C@H](O)[C@@H](O)[C@@H]1O [Salidroside]	–
–	1219.971 RFU	–	O=P(O)(O)OC[C@H](O)CO [sn-Glycerol 3-phosphate]	–
1003.039 RFU	–	–	COC(CC(C)=O)OC [4,4-Dimethoxy-2-butanone]	–
–	1071.425 RFU	–	O=C[C@@H](O)[C@@H](O)[C@H](O)[C@H](O)CO [D-Mannose]	Lipase (RFU) [5]: 984.0635 RFU
–	929.4609 RFU	–	CCCCCCCCCCCCCCCC(=O)NCCO [Palmitoylethanolamide]	–
1060.809 RFU	1041.765 RFU	–	C=CCc1ccc(OC(C)=O)c(OC)c1 [Eugenol acetate]	–
–	986.6872 RFU	–	CCCCCCCCCCCCCC[C@@H](O)[C@@H](O)[C@@H](N)CO [Phytosphingosine]	–
–	–	–	CCC(=O)O [Propionic Acid]	Lipase (RFU) [5]: 949.5989 RFU
–	–	932.2114 RFU	O=C(O)[C@H]1CCCCN1 [D-Pipecolinic acid]	–
1333.344 RFU	–	–	Cc1ccc(C=O)c(O)c1 [2-Hydroxy-4-methylbenzaldehyde]	–
818.9086 RFU	995.2617 RFU	–	CC(C)=CC(=O)O [3-Methylbut-2-enoic acid]	–
–	940.2255 RFU	–	CC(C)CC(=O)NCC(=O)O [N-Isovaleroylglycine]	–
–	–	–	Cc1ncc(CO)c(CN)c1O [Pyridoxamine]	Lipase (RFU) (Biolog PM5 compound added to fresh human milk, RFU <400 = hit): 954.5832 RFU
–	–	572.1788 RFU	O[C@@H]1[C@@H](O)[C@@H]2OC[C@@H](O2)[C@H]1O [Levoglucosan]	–

Structure (SMILES)	Lipase (RFU) [1]	Lipase (RFU) [2]	Lipase (RFU) [3]	other results
CCCCCCCC/C=C\CCCCCCCC(=O)O [Oleic acid]	1171.133 RFU	–	831.6362 RFU	–
